Legend:
WT KCNN4 = WT KCNN4 (Homo sapiens, UniProt O15554); assay: Whole cell patch clamp on HEK293 cells transfected with WT KCNN4; type: cell-based; conditions: Senicapoc, normalized K+ current at 0 mV, 1 μM free calcium
V282M mutated KCNN4 = V282M mutated KCNN4 (Homo sapiens, UniProt O15554, V282M); assay: Whole cell patch clamp on HEK293 cells transfected with V282M KCNN4; type: cell-based; conditions: Senicapoc, normalized K+ current at 0 mV, 1 μM free calcium
[1] = target: Gardos channels in control red blood cells (Homo sapiens, UniProt O15554); conditions: 10 μM TRAM-34, 5 min pre-incubation, whole-cell
control red blood cells = assay: Osmotic fragility test in hypotonic saline, control red blood cells; conditions: TRAM-34 10 μM

IC50 (WT KCNN4) [µM]	IC50 (V282M mutated KCNN4) [µM]	Structure (SMILES)	block of Gardos channel current [1]	decrease of the osmotic resistance (control red blood cells; 25 hours at 4° C.)	decrease of the osmotic resistance (control red blood cells; 25 hours at 37° C.)
~0.01	~0.01	NC(=O)C(c1ccccc1)(c1ccc(F)cc1)c1ccc(F)cc1 [Senicapoc, bis(4-fluorophenyl)phenyl acetamide]			
		Clc1ccccc1C(c1ccccc1)(c1ccccc1)n1cccn1 [TRAM-34, 1-[(2-Chlorophenyl)diphenylmethyl]-1H-pyrazole]	completely blocked	very slightly	more significantly
